# Literature values in article PMC2913173.
# Sequences of proteins named here, by UniProt entry; tags and fusion partners are left off. A change or cut given only in a name is not applied to a line headed by its entry.
# UniProt Q07817, whole entry: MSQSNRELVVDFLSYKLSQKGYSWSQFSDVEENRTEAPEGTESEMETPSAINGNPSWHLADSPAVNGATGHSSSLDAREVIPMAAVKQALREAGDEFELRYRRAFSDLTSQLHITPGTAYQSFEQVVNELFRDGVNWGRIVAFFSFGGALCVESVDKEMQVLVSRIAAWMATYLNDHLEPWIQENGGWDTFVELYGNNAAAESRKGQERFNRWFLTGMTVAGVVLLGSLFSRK
# UniProt Q16611: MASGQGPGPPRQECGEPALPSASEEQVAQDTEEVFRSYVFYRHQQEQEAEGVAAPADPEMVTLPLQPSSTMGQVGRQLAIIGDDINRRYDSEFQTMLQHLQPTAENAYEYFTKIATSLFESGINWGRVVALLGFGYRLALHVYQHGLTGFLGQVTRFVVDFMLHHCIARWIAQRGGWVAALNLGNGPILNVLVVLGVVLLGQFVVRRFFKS
# Like-named read-outs stand apart in the source and are kept apart here.
# What was measured:
# [1] = molecular target: Bcl-xL (Homo sapiens) (UniProt Q07817)
# [2] = molecular target: Bcl-xL (Homo sapiens) (UniProt Q07817); remark: listed apart in the source
substance,measurement,setting,value
Bak 72-87 (from UniProt Q16611),Kd,[1],480 nM
same,Kd,[2],340 nM
